Literature values in patent EP0999856B1, “RADIOPHARMACEUTICALS FOR IMAGING INFECTION AND INFLAMMATION” (Bristol-Myers Squibb Pharma Company, priority 1996, dated 1998).

Protein sequences, listed by entry. Tags and fused reporters are not part of them.
UniProt Q15722, whole entry: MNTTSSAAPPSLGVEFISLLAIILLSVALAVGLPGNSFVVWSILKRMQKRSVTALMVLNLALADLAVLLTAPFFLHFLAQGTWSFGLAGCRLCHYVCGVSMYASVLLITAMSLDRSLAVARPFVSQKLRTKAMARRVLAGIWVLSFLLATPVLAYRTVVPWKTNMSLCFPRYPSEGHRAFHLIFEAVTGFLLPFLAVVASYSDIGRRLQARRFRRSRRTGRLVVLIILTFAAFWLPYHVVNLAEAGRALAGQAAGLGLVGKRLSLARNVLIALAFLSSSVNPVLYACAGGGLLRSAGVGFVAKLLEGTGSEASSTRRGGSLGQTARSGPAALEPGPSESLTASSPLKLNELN

Target: LTB4 receptor (Homo sapiens, UniProt Q15722)
Conditions: Sawyer et al.; J. Med. Chem., 1995, 38, 4411-32; cited from earlier work

In the case of `CCc1cc(-c2ccc(F)cc2)c(O)cc1OCCCCCC(C)(C)c1nnn[nH]1`, the “affinity for the LTB4 receptor” value is given as “excellent affinity”.
